Biological target: FBXL10 (Homo sapiens (Human), UniProt Q8NHM5)
Assay: FBXL10 in vitro enzyme inhibition assay (AlphaScreen)
Format: biochemical
Details: Table 5
Method: This assay determines the ability of a test compound to inhibit FBXL11, FBXL10, and PHF8 demethylase activity. […] Baculovirus expressed FBXL10 (GenBank Accession #NM_032590, AA 1-650) was purchased from BPS Bioscience (Cat #50120). Baculovirus expressed PHF8 (GenBank Accession NP_055922.1) was purchased from Active Motif (Cat#31435).
The ability of test compounds to inhibit the activity of FBXL10 was determined in 384-well plate format under the following reaction conditions: 0.3 nM FBXL10, 30 nM H3K36me2-biotin labeled peptide (Anaspec cat #64442), 0.2 μM alpha-ketoglutaric acid in assay buffer of 50 mM HEPES, pH7.3, 0.005% Brij35, 0.5 mM TCEP, 0.2 mg/ml BSA, 50 μM sodium L-ascorbate, 5 μM ammonium iron(II) sulfate. Reaction product is determined quantitatively by AlphaScreen detection after the addition of detection reagents anti-H3K36me1 antibody, AlphaScreen® Streptavidin-coated Donor beads, and AlphaScreen® Protein A Acceptor beads in 50 mM HEPES, pH7.3, 10 mM NaCl, 0.005% Brij35, 5 mM EDTA, 2 mg/ml BSA to final 10 μg/ml beads.
The assay reaction was initiated by the following: 3 μl of the mixture of 90 nM H3K36me2-biotin labeled peptide and 0.6 μM alpha-ketoglutaric acid with 3 μl of 11-point serial diluted inhibitor in 3% DMSO are added to each well of 384 well Proxiplate (Perkin Elmer), followed by the addition of 3 μl of 0.9 nM FBXL10 to initiate the reaction. […]

The chains behind the UniProt entries cited, without tags or fusion partners. Residues count along the entry.
UniProt Q8NHM5, 1-650: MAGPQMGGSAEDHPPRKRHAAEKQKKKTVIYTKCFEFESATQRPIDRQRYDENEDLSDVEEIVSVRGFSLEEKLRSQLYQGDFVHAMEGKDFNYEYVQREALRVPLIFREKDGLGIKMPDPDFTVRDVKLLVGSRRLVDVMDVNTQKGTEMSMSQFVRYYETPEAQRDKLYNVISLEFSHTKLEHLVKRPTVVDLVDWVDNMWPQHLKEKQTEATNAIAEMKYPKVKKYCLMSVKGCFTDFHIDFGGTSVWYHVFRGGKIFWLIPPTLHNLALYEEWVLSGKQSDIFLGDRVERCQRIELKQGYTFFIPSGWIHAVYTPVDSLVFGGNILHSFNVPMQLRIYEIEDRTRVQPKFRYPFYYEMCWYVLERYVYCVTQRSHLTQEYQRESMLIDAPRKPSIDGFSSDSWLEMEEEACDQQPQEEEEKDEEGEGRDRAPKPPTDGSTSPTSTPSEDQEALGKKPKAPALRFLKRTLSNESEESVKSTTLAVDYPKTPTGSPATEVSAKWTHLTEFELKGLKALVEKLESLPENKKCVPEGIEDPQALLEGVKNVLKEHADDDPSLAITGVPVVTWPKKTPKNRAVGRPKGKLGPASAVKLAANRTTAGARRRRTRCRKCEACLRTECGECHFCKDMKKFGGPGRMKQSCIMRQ

**Q.** How did the IC50 turn out when “2-{1-[(6-fluoro-1,2,3,4- tetrahydronaphthalen-1-yl)methyl]-1H- imidazol-4-yl}-4-[5-(trifluoromethyl)-1H 1,2,3-triazol-4-yl]pyridine [Example 100]” was run?
**A.** 100 to 1000 nM

Reference: patent publication US9896436B2, “Histone demethylase inhibitors” (Celgene Quanticel Research, Inc., priority 2014, dated 2018)
